Some test systems named below: NCI/ADR-RES ovarian; T-47D breast; BT-549 breast; MDA-MB-435 melanoma; SW-620 colon; MCF7 breast; HCT-116 colon; HCC-2998 colon; KM12 colon.
Assay in all cases: NCI-60 one-dose screen, 48 h (100 = growth as untreated, 0 = no growth, -100 = all killed)
What all share (settings): 10 µM

Only a part is listed here, and it is no random draw.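 48-hour exposure, single concentration, 96-well plates; percent growth endpoint where 0 means no net growth. Active: below 10.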 The source made the active and inactive calls.

As to `Cc1ccc(NC2(C#N)CCN(Cc3ccccc3)CC2)cc1`, the growth in the assay on NCI/ADR-RES ovarian was inactive: 106%; with T-47D breast, inactive: 87.4%; with BT-549 breast it was inactive: 96%; in the assay with MDA-MB-435 melanoma it was inactive: 96.4%; with SW-620 colon, inactive: 107%; with MCF7 breast it was inactive: 103%. Further, the figures for the growth in the assay with HCT-116 colon, in the assay with HCC-2998 colon and in the assay with KM12 colon were inactive: 92.2%, inactive: 95.7% and inactive: 109%, respectively.

`COc1ccc(N)cc1CN(CCCl)CCCl`: the growth was inactive: 70.6% with NCI/ADR-RES ovarian; inactive: 49.9% in the assay with T-47D breast; inactive: 73.9% in the assay with BT-549 breast; inactive: 98.2% in the assay on MDA-MB-435 melanoma; inactive: 66.2% in the assay with SW-620 colon; inactive: 49.8% in the assay with MCF7 breast. Further, the growth in the assay on HCT-116 colon is inactive: 62.4%; in the assay on HCC-2998 colon, inactive: 80.2%; in the assay with KM12 colon, inactive: 94.6%.

`Cc1cccc(C(=O)N(CCCl)CCCl)c1`: the growth in the assay on NCI/ADR-RES ovarian is inactive: 106%; in the assay with T-47D breast, inactive: 101%; in the assay on BT-549 breast it was inactive: 101%; with MDA-MB-435 melanoma, inactive: 96.4%; in the assay with SW-620 colon it was inactive: 102%; in the assay on MCF7 breast, inactive: 90.8%. Further, the growth in the assay with HCT-116 colon was inactive: 103%; in the assay with HCC-2998 colon, inactive: 99.6%; in the assay with KM12 colon, inactive: 110%.

For `BrCCN(CCBr)CCCN(CCBr)CCBr`, the growth in the assay with NCI/ADR-RES ovarian is inactive: 101%; with T-47D breast it was inactive: 97%; with BT-549 breast, inactive: 96.5%; with MDA-MB-435 melanoma, inactive: 102%; in the assay with SW-620 colon it was inactive: 102%; in the assay on MCF7 breast it was inactive: 94.3%. The growth was inactive: 98.5% in the assay with HCT-116 colon, inactive: 110% with HCC-2998 colon and inactive: 101% with KM12 colon.

Consider `CCCCOc1ccc(N(CCCl)CCCl)cc1`, for which the growth with NCI/ADR-RES ovarian was inactive: 101%; in the assay on T-47D breast, inactive: 102%; in the assay with BT-549 breast it was inactive: 112%; in the assay with MDA-MB-435 melanoma it was inactive: 107%; with SW-620 colon, inactive: 104%; in the assay with MCF7 breast, inactive: 86.2%. The growth in the assay on HCT-116 colon is inactive: 100%; in the assay with HCC-2998 colon, inactive: 99.8%; in the assay with KM12 colon it was inactive: 102%.

Take `Fc1cccc(CBr)c1`: the growth in the assay on NCI/ADR-RES ovarian is inactive: 107%; in the assay with T-47D breast it was inactive: 90.6%; in the assay on BT-549 breast, inactive: 96.8%; with MDA-MB-435 melanoma, inactive: 99.3%; with SW-620 colon it was inactive: 101%; in the assay with MCF7 breast it was inactive: 99.2%. Besides, the growth with HCT-116 colon is inactive: 107%; with HCC-2998 colon, inactive: 106%; with KM12 colon it was inactive: 102%.

Take `Cc1ccc(CN(CCCl)CCCl)cc1C`: the growth in the assay on NCI/ADR-RES ovarian is inactive: 106%; in the assay with T-47D breast, inactive: 89.9%; in the assay on BT-549 breast, inactive: 97.9%; with MDA-MB-435 melanoma, inactive: 101%; in the assay with SW-620 colon, inactive: 99.4%; in the assay with MCF7 breast, inactive: 86.4%. Besides, the growth with HCT-116 colon is inactive: 94.1%; in the assay on HCC-2998 colon, inactive: 96%; in the assay with KM12 colon, inactive: 99.7%.

Regarding `[O-][n+]1onc(-c2ncon2)c1-c1ncon1`, the growth was inactive: 105% in the assay with NCI/ADR-RES ovarian; inactive: 82.3% with T-47D breast; inactive: 107% with BT-549 breast; inactive: 97.8% with MDA-MB-435 melanoma; active: 6.32% in the assay with SW-620 colon; inactive: 84.1% in the assay on MCF7 breast. Moreover, the growth with HCT-116 colon was inactive: 35%; in the assay on HCC-2998 colon, inactive: 98.8%; in the assay on KM12 colon it was inactive: 94.5%.

Consider `O=C1CCN(CCc2ccccc2)CC1`, for which the growth was inactive: 87.3% in the assay on NCI/ADR-RES ovarian; inactive: 12.8% in the assay with T-47D breast; inactive: 101% with BT-549 breast; inactive: 102% with MDA-MB-435 melanoma; inactive: 99.9% with SW-620 colon; inactive: 95.2% in the assay with MCF7 breast. Besides, the growth was inactive: 109% with HCT-116 colon, inactive: 86.7% with HCC-2998 colon and inactive: 138% with KM12 colon.

Turning to `O/N=C/c1ccc(N(CCCl)CCCl)cc1`, the growth in the assay with NCI/ADR-RES ovarian was inactive: 101%; in the assay with T-47D breast it was inactive: 93.1%; in the assay on BT-549 breast it was inactive: 94.2%; with MDA-MB-435 melanoma it was inactive: 93.2%; in the assay on SW-620 colon it was inactive: 97.4%; with MCF7 breast it was inactive: 71.8%. Moreover, the growth in the assay with HCT-116 colon was inactive: 94.7%; with HCC-2998 colon, inactive: 102%; in the assay with KM12 colon, inactive: 108%.

`COc1cccc(N(CCCl)CCCl)c1OC`: the growth was inactive: 73.4% with NCI/ADR-RES ovarian; inactive: 74.7% in the assay on T-47D breast; inactive: 88.9% in the assay on BT-549 breast; inactive: 95.7% in the assay on MDA-MB-435 melanoma; inactive: 62.1% in the assay with SW-620 colon; inactive: 62.3% in the assay with MCF7 breast. The growth was inactive: 68% in the assay with HCT-116 colon, inactive: 75% with HCC-2998 colon and inactive: 93.7% with KM12 colon.

Take `O=P1(N(CCCl)CCCl)SCCCS1`: the growth with NCI/ADR-RES ovarian is inactive: 100%; with T-47D breast, inactive: 98.7%; with BT-549 breast, inactive: 131%; in the assay on MDA-MB-435 melanoma it was inactive: 112%; with SW-620 colon, inactive: 104%; in the assay with MCF7 breast it was inactive: 95.3%. Also, the growth with HCT-116 colon is inactive: 109%; in the assay on HCC-2998 colon it was inactive: 100%; in the assay on KM12 colon, inactive: 114%.

Take `N#CC1(Nc2ccc(Cl)cc2)CCN(Cc2ccccc2)CC1`: the growth in the assay on NCI/ADR-RES ovarian is inactive: 51.4%; with T-47D breast it was inactive: 57%; in the assay on BT-549 breast, inactive: 56.8%; with MDA-MB-435 melanoma it was inactive: 37.8%; in the assay on SW-620 colon, inactive: 45.2%; in the assay with MCF7 breast, inactive: 70.1%. The growth in the assay on HCT-116 colon was inactive: 57.7%; in the assay on HCC-2998 colon, inactive: 79.8%; in the assay on KM12 colon, inactive: 38.2%.

Turning to `Cc1cc(O)c(CN(CC(C)Cl)CC(C)Cl)cc1C` (stereo not given), the growth with NCI/ADR-RES ovarian was inactive: 112%; in the assay with T-47D breast it was inactive: 85%; in the assay on BT-549 breast, inactive: 120%; with MDA-MB-435 melanoma, inactive: 100%; in the assay with SW-620 colon, inactive: 107%; with MCF7 breast, inactive: 95%. In addition, the figures for the growth in the assay on HCT-116 colon, in the assay on HCC-2998 colon and with KM12 colon were inactive: 104%, inactive: 106% and inactive: 105%, respectively.

For `Cc1ccc(NC2(C(N)=O)CCN(Cc3ccccc3)CC2)cc1`, the growth in the assay with NCI/ADR-RES ovarian was inactive: 103%; in the assay on T-47D breast, inactive: 104%; in the assay with BT-549 breast it was inactive: 106%; with MDA-MB-435 melanoma, inactive: 101%; in the assay with SW-620 colon, inactive: 106%; in the assay on MCF7 breast, inactive: 107%. For the same compound, the growth was inactive: 109% in the assay on HCT-116 colon, inactive: 105% with HCC-2998 colon and inactive: 112% in the assay on KM12 colon.

(Values after PubChem BioAssay (NCI).)
